Antibody variant affinities, Ab-95 light chain, assay 2

Values reported by Engelhart et al. 2022, doi:10.1038/s41597-022-01779-4 (FLAb copy).

The target is the same throughout: PDVDLGDISGINAS, from the HR2 region of SARS-CoV-2 spike.

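AAYL52 was designed without a model: most single CDR substitutions and a random sample of double and triple ones. The assay is AlphaSeq: two haploid yeast populations carry antibody and antigen on their surface. The frequency of each diploid, read from paired DNA barcodes, reflects how well the two displayed proteins bind. Scores were corrected for input abundance and mapped to Kd with protein pairs of known affinity run in the same pool. There are three technical replicates.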

The variants keep the heavy chain, the linker and the frameworks of Ab-95 (scFv order VH, a (GGGGS)3 linker, VL).
VH: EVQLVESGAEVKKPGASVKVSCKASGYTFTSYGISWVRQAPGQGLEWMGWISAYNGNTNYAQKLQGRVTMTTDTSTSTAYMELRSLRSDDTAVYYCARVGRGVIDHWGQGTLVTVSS
VL: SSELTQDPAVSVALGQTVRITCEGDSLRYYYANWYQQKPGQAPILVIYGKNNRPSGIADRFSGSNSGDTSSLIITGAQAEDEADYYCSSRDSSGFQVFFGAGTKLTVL

The whole VL of each variant is written out. Numbers give log10(Kd / nM), so 0 is 1 nM and 3 is 1 µM. Smaller is tighter. The mean shown is taken over the replicates in which the pair was detected. "not detected" means that the variant was in the library but no mating with the target was seen in any replicate; the authors take this as a sign of poor binding, and no number exists. In this assay the parent's reference entry averaged 2.31; its copy inside this library read 2.25.

VL	log10 Kd (nM), mean	seen in
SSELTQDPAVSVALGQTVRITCEGDLLAYYYINWYQQKPGQAPILVIYGKNNRPSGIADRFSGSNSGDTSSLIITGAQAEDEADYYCSSRDSSGFQVFFGAGTKLTVL	2.37	3/3
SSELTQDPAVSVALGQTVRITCEGDSLRYYYANWYQQKPGQAPILVIYGKNNRNSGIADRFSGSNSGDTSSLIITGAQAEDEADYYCSITDSSGFQVFFGAGTKLTVL	5.12	1/3
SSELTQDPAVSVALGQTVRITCEGDSLRYYYANWYQQKPGQAPILVIYGKNNRPSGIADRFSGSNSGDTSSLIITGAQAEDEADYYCSSRSSSAFQVFFGAGTKLTVL	3.93	2/3
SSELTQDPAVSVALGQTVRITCEGDSVRYYYANWYQQKPGQAPILVIYGKNNRPSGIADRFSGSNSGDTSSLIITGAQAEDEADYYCSSRDSIGFQVFFGAGTKLTVL	2.98	3/3
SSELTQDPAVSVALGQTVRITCEGDSLRYYYANWYQQKPGQAPILVIYGKNIRPSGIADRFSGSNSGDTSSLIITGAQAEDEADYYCSSRDSSGMQVWFGAGTKLTVL	2.34	3/3
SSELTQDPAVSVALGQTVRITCEGDSLRYLYANWYQQKPGQAPILVIYGVNNRPSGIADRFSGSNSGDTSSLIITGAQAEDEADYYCSSRDGSGFQVFFGAGTKLTVL	3.26	3/3
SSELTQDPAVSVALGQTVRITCEGDSLRYYYANWYQQKPGQAPILVIYGKNNRPSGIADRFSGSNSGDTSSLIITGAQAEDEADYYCYSRDISGFQVFFGAGTKLTVL	4.44	1/3
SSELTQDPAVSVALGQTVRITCEGFSLRYYYFNWYQQKPGQAPILVIYGKNNRPSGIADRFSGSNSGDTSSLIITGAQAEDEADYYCSSRDSSGGQVFFGAGTKLTVL	not detected	0/3
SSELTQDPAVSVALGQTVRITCEMDSLRGYYANWYQQKPGQAPILVIYGKNNRPSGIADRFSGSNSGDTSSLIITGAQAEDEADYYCSSRDSSGFQVIFGAGTKLTVL	2.75	3/3
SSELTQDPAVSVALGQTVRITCEGDSLRYYYANWYQQKPGQAPILVIYGKNDRSSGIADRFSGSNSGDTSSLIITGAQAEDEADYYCSSRDSSGHQVFFGAGTKLTVL	2.57	2/3
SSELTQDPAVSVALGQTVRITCEGDSLRYYYANWYQQKPGQAPILVIYLKNNRPSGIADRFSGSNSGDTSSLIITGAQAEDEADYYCSSRDHSGTQVFFGAGTKLTVL	4.47	2/3
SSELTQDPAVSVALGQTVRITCEGDSLRYYYDNWYQQKPGQAPILVIYNKNNRPSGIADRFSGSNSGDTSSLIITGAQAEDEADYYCSSRDSTGFQVFFGAGTKLTVL	5.39	1/3
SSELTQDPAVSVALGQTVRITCEGDSLRYYYANWYQQKPGQAPILVIYGKNNIPSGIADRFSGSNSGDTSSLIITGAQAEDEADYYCSSRDSSQQQVFFGAGTKLTVL	not detected	0/3
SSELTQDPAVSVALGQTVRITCEGDSLRYYYANWYQQKPGQAPILVIYGPNNRPSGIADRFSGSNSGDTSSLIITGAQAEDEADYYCSSRDSWGFQVRFGAGTKLTVL	3.95	3/3
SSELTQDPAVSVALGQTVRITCEGDSLRYYYENWYQQKPGQAPILVIYGKNNRPRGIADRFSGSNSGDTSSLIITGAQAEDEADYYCSSRDSHGFQVFFGAGTKLTVL	3.81	3/3
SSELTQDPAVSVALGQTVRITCEGQSLRYYYANWYQQKPGQAPILVIYGKNNRSSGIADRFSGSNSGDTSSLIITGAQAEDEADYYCFSRDSSGFQVFFGAGTKLTVL	3.09	3/3
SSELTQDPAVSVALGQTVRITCEGDSLRYYYYHWYQQKPGQAPILVIYGENNRPSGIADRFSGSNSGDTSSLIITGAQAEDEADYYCSSRDSSGFQVFFGAGTKLTVL	not detected	0/3
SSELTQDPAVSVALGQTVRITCEGDSLYYYYANWYQQKPGQAPILVIYGKNTWPSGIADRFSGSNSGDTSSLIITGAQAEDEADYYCSSRDSSGFQVFFGAGTKLTVL	3.76	2/3
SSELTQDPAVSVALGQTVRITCEGDDLMYYYANWYQQKPGQAPILVIYGKNWRPSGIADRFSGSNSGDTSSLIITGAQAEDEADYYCSSRDSSGFQVFFGAGTKLTVL	3.28	3/3
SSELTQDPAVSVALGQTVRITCEGDSLRYYWANWYQQKPGQAPILVIYGKNNRPSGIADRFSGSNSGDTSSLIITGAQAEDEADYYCSSRDSSGTWVFFGAGTKLTVL	3.38	3/3
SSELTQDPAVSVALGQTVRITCEGDSLRYYYAQWYQQKPGQAPILVIYGKNNRPSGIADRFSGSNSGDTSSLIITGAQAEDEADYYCSSRTSSGLQVFFGAGTKLTVL	4.18	2/3

A selection of 2 entries from above:

{"VL": "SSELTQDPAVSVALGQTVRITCEGDSLRYYWANWYQQKPGQAPILVIYGKNNRPSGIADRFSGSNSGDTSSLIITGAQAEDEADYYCSSRDSSGTWVFFGAGTKLTVL", "log10 Kd (nM), mean": "3.38", "seen in": "3/3"}
{"VL": "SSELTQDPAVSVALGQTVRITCEGDSLYYYYANWYQQKPGQAPILVIYGKNTWPSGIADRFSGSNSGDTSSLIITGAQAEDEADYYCSSRDSSGFQVFFGAGTKLTVL", "log10 Kd (nM), mean": "3.76", "seen in": "2/3"}

Background: pairings of library AAYL52 with three empty control strains gave a value in 28% of cases (median 3.91, 5th percentile 2.90). Values in that range, when seen in few replicates, are hard to tell from nonspecific mating.